From patent US6417222B1, “[2-substituted-5-[3-thienyl)-benzyl]-2- ([2-isopropoxy-5-fluoro]-phenyoxy)-ethyl]-amine derivatives, method for the production and use thereof as medicaments” (Pierre Fabre Medicament, priority 1999, dated 2002)

Test: Cataleptogenic power (extrapyramidal side effects)
Conditions: rat, in vivo; rats, oral administration; read-out: Catalepsy ED50
From the text: 2—Evaluation of the antagonist activity of the D2 receptors and of the cataleptogenic effects of the compounds of the invention in vivo
The test for evaluating the propensity of the products of the invention to cause side effects of extrapyramidal order is based on their cataleptogenic power, measured in rats, according to the method described in Eur. J. Pharmacol. 1996, 313, 25.

## Cc1nc2n(c(=O)c1CCN1CCC(c3noc4cc(F)ccc34)CC1)CCCC2 [Risperidone, reference compound]
  ED50: 3.5 mg/kg
